Results: ChEMBL document CHEMBL4138202, “Design, synthesis, biological evaluation and molecular modeling of novel 2-amino-4-(1-phenylethoxy) pyridine derivatives as potential ROS1 inhibitors” (Eur J Med Chem, 2018)

Organism: Homo sapiens
Assay: Selectivity ratio of IC50 for recombinant human GST-tagged ALK to IC50 for recombinant human GST-tagged ROS1

SMILES | Ratio IC50
COc1ccc(CNC(=O)c2cccc(C(C)Oc3ccnc(Nc4cnn(C5CCNCC5)c4)c3)c2)cc1OC (configuration not stated) | 12
Cc1ccc(CNC(=O)c2cccc(C(C)Oc3ccnc(Nc4cnn(C5CCN(C)CC5)c4)c3)c2)cc1 (configuration not stated) | 7
